Earlier results in article PMC2131756, “Grb7 SH2 domain structure and interactions with a cyclic peptide inhibitor of cancer cell migration and proliferation” (BMC Structural Biology, 2007).

System: breast cancer cells
Set-up: method as in PMID 17426702
Settings: co-treatment with cell permeable G7-18NATE peptide, ref [19]; cited from earlier work

Herceptin: Trastuzumab (Herceptin)
change of drug EC50 on co-treatment (in words): significant reduction of the drug EC50 value
